Legend:
P. berghei = settings: in vivo
Walker tumor = settings: versus malphalan

## Nc1ccc(S(=O)(=O)Nc2ncccn2)cc1 [sulfadiazine]
P. berghei
  relative efficacy against P. berghei, sulfadiazine vs silver sulfadiazine: equal efficacy
Walker tumor
  concentration in Walker tumor relative to an active alkylating agent, liver as standard: twenty-five times more effectively
